This is an account of results in PubChem BioAssay (EPA / NIEHS).

Amino acid sequences for entries named in this document (tags omitted). A change or cut given only in a name is not applied to a line headed by its entry.
UniProt P08659, whole entry, looked up: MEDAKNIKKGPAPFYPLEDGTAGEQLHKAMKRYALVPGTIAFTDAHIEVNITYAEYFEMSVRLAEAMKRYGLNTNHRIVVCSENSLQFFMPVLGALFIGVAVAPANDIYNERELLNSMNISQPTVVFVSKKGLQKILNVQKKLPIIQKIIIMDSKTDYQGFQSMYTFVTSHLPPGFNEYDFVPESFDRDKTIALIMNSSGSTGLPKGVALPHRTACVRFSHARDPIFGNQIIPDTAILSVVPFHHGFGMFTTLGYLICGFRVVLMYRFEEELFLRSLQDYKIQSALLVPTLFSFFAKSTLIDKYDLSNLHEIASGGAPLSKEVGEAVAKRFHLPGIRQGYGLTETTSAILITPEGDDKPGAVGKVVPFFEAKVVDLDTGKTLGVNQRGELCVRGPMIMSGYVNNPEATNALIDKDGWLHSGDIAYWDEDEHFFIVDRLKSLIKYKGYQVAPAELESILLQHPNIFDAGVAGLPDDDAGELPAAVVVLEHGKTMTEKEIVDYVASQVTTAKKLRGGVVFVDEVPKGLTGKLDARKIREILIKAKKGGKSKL
UniProt P10275: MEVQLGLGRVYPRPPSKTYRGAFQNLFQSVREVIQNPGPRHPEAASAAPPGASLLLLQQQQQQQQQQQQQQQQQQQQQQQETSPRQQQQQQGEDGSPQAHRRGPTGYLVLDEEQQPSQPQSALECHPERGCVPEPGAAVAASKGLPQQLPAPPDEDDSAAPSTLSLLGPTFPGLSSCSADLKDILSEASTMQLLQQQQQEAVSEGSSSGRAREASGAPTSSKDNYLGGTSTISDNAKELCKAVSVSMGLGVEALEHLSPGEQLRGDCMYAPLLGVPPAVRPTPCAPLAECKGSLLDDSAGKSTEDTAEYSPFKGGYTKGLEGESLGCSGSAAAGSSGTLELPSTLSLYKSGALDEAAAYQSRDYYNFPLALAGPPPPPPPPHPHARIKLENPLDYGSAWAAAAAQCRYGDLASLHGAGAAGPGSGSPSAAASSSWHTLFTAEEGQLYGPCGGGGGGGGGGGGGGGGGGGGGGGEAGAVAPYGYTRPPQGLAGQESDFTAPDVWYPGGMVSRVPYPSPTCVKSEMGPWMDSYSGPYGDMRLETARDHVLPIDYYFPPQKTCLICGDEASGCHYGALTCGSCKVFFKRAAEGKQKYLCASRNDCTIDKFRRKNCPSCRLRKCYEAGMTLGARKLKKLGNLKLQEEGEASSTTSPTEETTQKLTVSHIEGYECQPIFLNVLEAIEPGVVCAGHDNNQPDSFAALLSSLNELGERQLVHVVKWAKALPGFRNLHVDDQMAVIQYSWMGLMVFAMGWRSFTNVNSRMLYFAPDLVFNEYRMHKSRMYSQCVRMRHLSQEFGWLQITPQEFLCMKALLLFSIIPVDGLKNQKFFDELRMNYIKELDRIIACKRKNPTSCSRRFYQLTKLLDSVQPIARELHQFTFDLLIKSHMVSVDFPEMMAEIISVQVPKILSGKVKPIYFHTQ
UniProt P04386, whole entry, looked up: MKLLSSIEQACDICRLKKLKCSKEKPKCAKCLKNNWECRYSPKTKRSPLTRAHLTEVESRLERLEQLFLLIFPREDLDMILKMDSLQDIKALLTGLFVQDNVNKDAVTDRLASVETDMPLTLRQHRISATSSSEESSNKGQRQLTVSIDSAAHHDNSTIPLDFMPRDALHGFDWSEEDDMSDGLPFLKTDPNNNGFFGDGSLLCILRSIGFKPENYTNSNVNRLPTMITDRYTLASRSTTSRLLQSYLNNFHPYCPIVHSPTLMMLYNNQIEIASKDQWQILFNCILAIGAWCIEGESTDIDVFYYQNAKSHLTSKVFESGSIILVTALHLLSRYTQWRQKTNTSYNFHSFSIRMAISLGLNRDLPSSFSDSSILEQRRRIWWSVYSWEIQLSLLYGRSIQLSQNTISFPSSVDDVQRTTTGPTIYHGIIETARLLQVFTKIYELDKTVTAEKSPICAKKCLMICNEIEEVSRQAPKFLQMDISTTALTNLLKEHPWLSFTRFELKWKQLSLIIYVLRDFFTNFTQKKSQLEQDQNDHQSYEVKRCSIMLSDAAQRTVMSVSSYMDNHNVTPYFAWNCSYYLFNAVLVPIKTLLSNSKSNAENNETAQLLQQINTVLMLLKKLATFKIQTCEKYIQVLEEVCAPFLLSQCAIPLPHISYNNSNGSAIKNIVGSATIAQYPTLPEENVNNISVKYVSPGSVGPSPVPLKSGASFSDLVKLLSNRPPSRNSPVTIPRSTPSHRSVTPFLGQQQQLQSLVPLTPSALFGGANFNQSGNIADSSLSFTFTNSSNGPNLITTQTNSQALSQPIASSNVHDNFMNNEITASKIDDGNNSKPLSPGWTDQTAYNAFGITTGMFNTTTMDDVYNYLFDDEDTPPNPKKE
UniProt P57717: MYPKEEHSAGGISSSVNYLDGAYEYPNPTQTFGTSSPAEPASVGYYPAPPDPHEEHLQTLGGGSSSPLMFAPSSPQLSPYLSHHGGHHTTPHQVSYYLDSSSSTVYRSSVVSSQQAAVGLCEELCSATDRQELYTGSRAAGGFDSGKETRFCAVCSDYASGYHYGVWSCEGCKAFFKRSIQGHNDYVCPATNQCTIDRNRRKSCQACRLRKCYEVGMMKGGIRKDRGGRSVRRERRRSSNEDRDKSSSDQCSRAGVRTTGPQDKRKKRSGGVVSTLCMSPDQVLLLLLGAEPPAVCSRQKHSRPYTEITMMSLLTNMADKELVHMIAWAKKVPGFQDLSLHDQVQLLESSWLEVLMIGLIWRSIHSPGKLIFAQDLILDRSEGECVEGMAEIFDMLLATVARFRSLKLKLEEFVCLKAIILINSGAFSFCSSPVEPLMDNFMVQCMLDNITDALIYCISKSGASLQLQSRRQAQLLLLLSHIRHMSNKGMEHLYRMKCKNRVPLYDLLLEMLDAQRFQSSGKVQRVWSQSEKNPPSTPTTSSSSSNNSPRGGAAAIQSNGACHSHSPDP
UniProt P06212, whole entry, looked up: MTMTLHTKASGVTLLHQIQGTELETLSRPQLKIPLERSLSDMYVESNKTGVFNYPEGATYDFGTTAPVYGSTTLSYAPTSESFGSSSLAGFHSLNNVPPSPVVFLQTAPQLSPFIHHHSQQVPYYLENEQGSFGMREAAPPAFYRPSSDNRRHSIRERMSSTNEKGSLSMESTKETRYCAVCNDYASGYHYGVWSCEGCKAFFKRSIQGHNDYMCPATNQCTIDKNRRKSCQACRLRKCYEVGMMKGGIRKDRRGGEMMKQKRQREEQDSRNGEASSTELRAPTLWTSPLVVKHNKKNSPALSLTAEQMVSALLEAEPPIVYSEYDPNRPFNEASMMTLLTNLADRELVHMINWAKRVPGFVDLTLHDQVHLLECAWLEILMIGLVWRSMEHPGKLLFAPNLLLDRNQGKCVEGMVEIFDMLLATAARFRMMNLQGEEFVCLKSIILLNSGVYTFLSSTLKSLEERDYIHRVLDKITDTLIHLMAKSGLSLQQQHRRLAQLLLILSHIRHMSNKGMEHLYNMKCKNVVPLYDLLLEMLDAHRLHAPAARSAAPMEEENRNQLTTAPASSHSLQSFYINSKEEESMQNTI
UniProt P37231: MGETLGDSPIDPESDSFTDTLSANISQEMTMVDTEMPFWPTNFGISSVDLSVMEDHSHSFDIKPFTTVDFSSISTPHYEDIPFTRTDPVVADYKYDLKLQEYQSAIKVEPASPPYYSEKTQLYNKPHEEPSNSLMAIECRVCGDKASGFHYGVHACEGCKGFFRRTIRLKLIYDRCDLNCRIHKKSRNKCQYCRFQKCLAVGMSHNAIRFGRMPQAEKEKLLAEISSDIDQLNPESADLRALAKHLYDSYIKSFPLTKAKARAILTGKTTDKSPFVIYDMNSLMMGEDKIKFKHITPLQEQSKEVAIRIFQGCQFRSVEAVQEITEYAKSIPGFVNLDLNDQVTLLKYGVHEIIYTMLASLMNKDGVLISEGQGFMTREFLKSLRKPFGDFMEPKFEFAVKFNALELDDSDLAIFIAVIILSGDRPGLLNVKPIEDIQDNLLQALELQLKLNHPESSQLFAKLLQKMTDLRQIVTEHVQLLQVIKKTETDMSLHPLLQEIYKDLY
UniProt P37238, whole entry, looked up: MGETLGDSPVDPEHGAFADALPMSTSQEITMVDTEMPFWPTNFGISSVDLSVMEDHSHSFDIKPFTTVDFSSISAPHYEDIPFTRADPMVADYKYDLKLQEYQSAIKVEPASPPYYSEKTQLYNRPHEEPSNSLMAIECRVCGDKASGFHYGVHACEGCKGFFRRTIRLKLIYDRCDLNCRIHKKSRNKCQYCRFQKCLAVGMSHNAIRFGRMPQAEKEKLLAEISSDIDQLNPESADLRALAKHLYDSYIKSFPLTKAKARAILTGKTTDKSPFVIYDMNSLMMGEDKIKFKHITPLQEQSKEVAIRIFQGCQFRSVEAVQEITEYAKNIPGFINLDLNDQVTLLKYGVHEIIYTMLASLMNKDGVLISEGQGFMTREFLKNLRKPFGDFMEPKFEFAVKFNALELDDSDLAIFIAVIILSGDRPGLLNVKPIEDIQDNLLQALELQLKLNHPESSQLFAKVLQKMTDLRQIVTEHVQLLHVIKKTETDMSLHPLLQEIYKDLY

In assay [1] the target is Luciferin 4-monooxygenase (Photinus pyralis) (UniProt P08659). The assay is described as follows: CCTE_Simmons_QuantiLum_inhib_2: CCTE's Firefly Luciferase Inhibition Assay, Simmons Lab (AID 2283767).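 For AC50: potency for inhibitors that lower luciferase luminescence relative to DMSO.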 The method, boiled down: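 Eight test concentrations, 5 nM up to 87.5 uM final, preincubated 30min at 37C in the dark with purified luciferase (0.5% DMSO final). Detection reagent (150uM D-luciferin, 147uM dATP, 75uM CoA, pH 7.8) injected per well before kinetic luminescence read; three replicates.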

Assay [2] in a line: ACEA_AR_agonist_AUC_viability: ACEA Biosciences xCELLigence Real-Time Cell Analysis on Androgen Receptor Agonism for Viability (AID 2283775).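 For AC50: viability read 80 hours after compound addition.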 In a few lines:
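22Rv1 cells; impedance growth kinetics; 8-pt 1:4 dilutions from 100 uM top final, ≤0.5% DMSO; n = 2; 80 h read; AUC viability, loss-of-signal vs DMSO.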

Assay [3] in a line: ACEA_AR_antagonist_AUC_viability: ACEA Biosciences xCELLigence Real-Time Cell Analysis on Androgen Receptor Antagonism for Viability (AID 2283776).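 Note: 22Rv1 human prostate cancer cells growing on impedance electrode plates; area under impedance growth curve at 80 h after dosing as viability; hits lower the growth signal relative to DMSO meaning cytotoxicity.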 In a few lines:
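Viability endpoint from label-free cell-index monitoring: 22Rv1 cultures treated with an eight-point 1:4 dilution series starting at 100 uM final, AUC at 80 h fitted against DMSO.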

Assay [4] can be described thus: ACEA_ER_AUC_viability: ACEA Biosciences xCELLigence Real-Time Cell Analysis on Estrogen Receptor Agonism for Viability (AID 2283782).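 Note: hit means loss of impedance signal meaning reduced cell growth or viability.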 The method, boiled down: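 Read-out: real-time electrical impedance (RT-CES) area under curve, loss of signal taken as reduced viability, normalized to DMSO baseline. T-47D cells, charcoal-stripped serum medium, compounds up to 100 uM final, continuous exposure, 80 h.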

Assay [5] has as its target AR (gene 367) (UniProt P10275). Kind of assay: ACEA_AR_agonist_80hr: ACEA Biosciences xCELLigence Real-Time Cell Analysis on Androgen Receptor Agonism for Proliferation (AID 2283783).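 Note: hits increase impedance growth signal above DMSO baseline.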 In a few lines: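 Impedance (RT-CES) growth signal at 80 h post-dose; 22Rv1 cells, 8-pt 1:4 series, top 100 uM final, DMSO ≤0.5%; duplicate plates; gain-of-signal fit relative to DMSO baseline.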

The target of assay [6] is AR (gene 367) (UniProt P10275). The assay is described as follows: ACEA_AR_antagonist_80hr: ACEA Biosciences xCELLigence Real-Time Cell Analysis on Androgen Receptor Antagonism for Proliferation (AID 2283787).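 Note: 22Rv1 human prostate cancer cells with growth followed by electrical impedance; hits lower the impedance growth signal relative to DMSO.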 In a few lines:
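Measures real-time proliferation of 22Rv1 prostate cancer cells by electrode impedance at 80 hours after dosing. Test articles ran at eight concentrations (1:4 steps, top 100 uM final) in biological duplicate.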

A short description of assay [7]: ATG_M_06_XSP2: Attagene TRANS-FACTORIAL Multi-Species (XSP2) HepG2 Assay for M06 Transcription Factor (Internal Marker) (AID 2283811).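 Note: hits are increases in signal above the DMSO baseline.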 The method, boiled down:
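Readout: fluorescent reporter-mRNA peaks by capillary electrophoresis after RT-PCR and HpaI digest, scored upward relative to DMSO. Transfected HepG2, 24 h chemical exposure, with 3 nM 6-alpha-fluorotestosterone and 1.5 nM norgestrel added.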

For assay [8], the system named is turtle Estrogen Receptor (ERa), gene 101933533. Kind of assay: ATG_trERa_XSP2: Attagene TRANS-FACTORIAL Multi-Species (XSP2) HepG2 Assay for turtle Estrogen Receptor (ERa) (AID 2283812).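 Note: actives raise reporter signal above DMSO so AC50 reflects agonist activity.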 In a few lines: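 Readout is reporter mRNA quantified by RT-PCR with capillary electrophoresis after 24 h compound exposure, increase relative to DMSO. Uses transiently transfected human HepG2 liver cells carrying a chimeric turtle ERa-Gal4 receptor driving GAL4-UAS reporters.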

The target of assay [9] is GAL4 Transcription Factor (Internal Marker), GAL4 (gene 855828) (UniProt P04386). Kind of assay: ATG_GAL4_XSP2: Attagene TRANS-FACTORIAL Multi-Species (XSP2) HepG2 Assay for GAL4 Transcription Factor (Internal Marker) (AID 2283814).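 Note: GAL4 reporter mRNA background control in MRTU transfected cells not a receptor target.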 The method, boiled down:
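Background-control readout: gain-of-signal fitted against DMSO. After 24 h exposure of transfected HepG2 (MRTU, GAL4-UAS reporters; 3 nM 6-alpha-fluorotestosterone, 1.5 nM norgestrel present), transcripts quantified by RT-PCR and capillary electrophoresis fluorescence.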

Assay [10] addresses zebrafish Estrogen Receptor (ER1), esr1 (gene 259252) (UniProt P57717). The assay is described as follows: ATG_zfER1_XSP2: Attagene TRANS-FACTORIAL Multi-Species (XSP2) HepG2 Assay for zebrafish Estrogen Receptor (ER1) (AID 2283816). The method, boiled down:
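After 24 h compound exposure, RNA from transfected HepG2 cells was reverse-transcribed and reporter transcripts resolved by capillary electrophoresis. The TRANS format reads exogenous zebrafish ER1-Gal4 chimera activity on GAL4-UAS elements; gain of signal against DMSO.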

Assay [11] has as its target chicken Estrogen Receptor (ERa), ESR1 (gene 396099) (UniProt P06212). The assay is described as follows: ATG_chERa_XSP2: Attagene TRANS-FACTORIAL Multi-Species (XSP2) HepG2 Assay for chicken Estrogen Receptor (ERa) (AID 2283817).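 Note: actives raise reporter signal above DMSO so AC50 reflects ER activation.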 In a few lines:
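Readout: fluorescent reporter-transcript fragments resolved by capillary electrophoresis after RT-PCR and HpaI cut. Chicken ERa-Gal4 fusion in transiently transfected HepG2, dosed for 24 h; activity taken as increase over DMSO baseline.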

Assay [12] has as its system zebrafish Estrogen Receptor (ER2a), gene 317734. Kind of assay: ATG_zfER2a_XSP2: Attagene TRANS-FACTORIAL Multi-Species (XSP2) HepG2 Assay for zebrafish Estrogen Receptor (ER2a) (AID 2283818).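 Note: hits raise reporter mRNA so AC50 reflects activation of zebrafish ER2a.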 The method, boiled down: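 Multiplexed trans-reporter readout: RT-PCR then capillary electrophoresis of reporter transcripts after 24 h compound treatment. Human HepG2 carries transfected zebrafish ER2a-Gal4 chimera; 3 nM 6-alpha-fluorotestosterone plus 1.5 nM norgestrel present. Induction scored against DMSO.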

In assay [13] the test system is frog Estrogen Receptor (ER), gene 398734. Kind of assay: ATG_frER1_XSP2: Attagene TRANS-FACTORIAL Multi-Species (XSP2) HepG2 Assay for frog Estrogen Receptor (ER) (AID 2283821).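 Note: hits raise reporter mRNA above DMSO baseline so potency means agonist or activator.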 The method, boiled down: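 Reporter mRNA induction, detected as fluorescence after RT-PCR and capillary electrophoresis, is the endpoint; activity is fitted upward against DMSO. Cells are human liver HepG2 carrying transfected NR-Gal4 chimeras with GAL4-UAS-driven reporters, harvested 24 h post-dosing.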

In assay [14] the test system is zebrafish Estrogen Receptor (ER2b), gene 317733. The assay is described as follows: ATG_zfER2b_XSP2: Attagene TRANS-FACTORIAL Multi-Species (XSP2) HepG2 Assay for zebrafish Estrogen Receptor (ER2b) (AID 2283823).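 Note: fitted upward as reporter gain over DMSO so potency reflects activation.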 The method, boiled down: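 HepG2 human liver cells transiently transfected with multiplexed GAL4-UAS reporter units expressing chimeric NR-Gal4 proteins; compounds dosed for 24 h. Reporter mRNA quantified by RT-PCR, 6-FAM labelling and capillary electrophoresis; gain-of-signal fitted against DMSO baseline.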

Assay [15] has as its system zebrafish Androgen Receptor (AR), gene 100005148. The assay is described as follows: ATG_zfAR_XSP2: Attagene TRANS-FACTORIAL Multi-Species (XSP2) HepG2 Assay for zebrafish Androgen Receptor (AR) (AID 2283825).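 Note: hits raise reporter mRNA above DMSO so AC50 reflects agonist-type gain.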 The method, boiled down:
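After 24 h compound exposure in medium with 3 nM 6-alpha-fluorotestosterone plus 1.5 nM norgestrel, HepG2 cells carrying zebrafish AR–GAL4 reporter constructs were assessed for reporter mRNA gain by RT-PCR and capillary electrophoresis.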

Assay [16] is described as follows: ATG_M_32_XSP2: Attagene TRANS-FACTORIAL Multi-Species (XSP2) HepG2 Assay for M19 Transcription Factor (Internal Marker) (AID 2283826). The method, boiled down: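 Read-out: reporter mRNA quantified by RT-PCR, FAM labeling, HpaI digestion and capillary electrophoresis, 24 h after dosing transfected HepG2 cells. Medium carried 3 nM 6-alpha-fluorotestosterone plus 1.5 nM norgestrel; gain of signal fitted against DMSO.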

Assay [17] deals with frog Estrogen Receptor (ER2), gene 100174814. The assay is described as follows: ATG_frER2_XSP2: Attagene TRANS-FACTORIAL Multi-Species (XSP2) HepG2 Assay for frog Estrogen Receptor (ER2) (AID 2283828). In a few lines:
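Cells were transfected with reporter constructs under GAL4-UAS control, dosed with chemicals for 24 h, then lysed for RNA; the frog ER2-driven reporter mRNA was quantified by capillary electrophoresis of labeled PCR fragments, with activity fitted upward from DMSO.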

Assay [18] addresses Peroxisome proliferator-activated receptor gamma (Homo sapiens) (UniProt P37231). Kind of assay: ATG_hPPARg_XSP2: Attagene TRANS-FACTORIAL Multi-Species (XSP2) HepG2 Assay for human Peroxisome Proliferator-activated Receptor gamma (PPARg) (AID 2283829).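 Note: actives raise reporter mRNA above DMSO so AC50 reflects PPARg activation.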 The method, boiled down:
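Reporter transcripts were measured by RT-PCR, fluorescent labeling, HpaI digestion and capillary electrophoresis, relative to DMSO, 24 h post-dosing. Transiently transfected HepG2 expressed NR-Gal4 chimeras regulating GAL4-UAS reporters; medium contained 3 nM 6-alpha-fluorotestosterone plus 1.5 nM norgestrel.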

For assay [19], the target named is mouse Peroxisome Proliferator-activated Receptor gamma (PPARg), Pparg (gene 19016) (UniProt P37238). Kind of assay: ATG_mPPARg_XSP2: Attagene TRANS-FACTORIAL Multi-Species (XSP2) HepG2 Assay for mouse Peroxisome Proliferator-activated Receptor gamma (PPARg) (AID 2283830).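 Note: hits are gains in reporter mRNA above DMSO so AC50 marks activation.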 The method, boiled down:
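Multiplexed TRANS reporter readout: after 24 h chemical exposure of transfected HepG2 cells (with 3 nM 6-alpha-fluorotestosterone, 1.5 nM norgestrel present), RNA reverse-transcribed, amplified, 6-FAM-labelled and resolved by capillary electrophoresis; mouse PPARg-Gal4 induction scored against DMSO.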

The nature of assay [20]: STM_H9_NormalizedViability: Cytotoxicity Assessment at 120 hours in the Stemina devTOX quickPredict H9 human embryonic stem cell (hESC)-based Assay (AID 2283784). The method, boiled down:
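Viability endpoint: background-corrected CellTiter-Fluor RFU expressed relative to the 0.1% DMSO mean on each plate. Undifferentiated H9 cells were treated with daily re-dosing and media change, and loss of signal was fitted.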

Where “and” joins values, the source holds several entries; their conditions need not be identical. Equal entries are not always repeated. This is a selection; strong and weak results do not stand in their true shares. Inconclusive results are not listed. Where a structure was tested more than once in an assay, its records may differ in their call. Calls of active or inactive are those of the source. Rule for the calls: active = hit-call score of the fitted dose curve at least 0.9, where 1 is the maximum; inconclusive = response in the unintended direction; inactive = score below 0.9.

Consider `ClP(Cl)c1ccccc1`, for which the call in assay [1], in assay [2], in [3] and in [4] was inactive.

For `O=[P+](Oc1ccccc1)Oc1ccccc1`, the result in assay [1], in assay [3], in [5], in assay [6], in [7] and in assay [8] was inactive. Moreover, the result in assay [9], in assay [10], in assay [11], in [13], in assay [15] and in assay [16] was inactive. For the same compound, the outcome in assay [18] and in [19] was inactive. Besides, the AC50 in [8] was active: 27.5 µM; in assay [11], active: 20.1 µM; in [12] it was active: 49.2 µM and active: 15.2 µM; in assay [14], active: 25.5 µM and active: 7.4 µM; in assay [17], active: 15.8 µM and active: 5.58 µM.

As to `CC(C)OP(=S)(OC(C)C)SCCNS(=O)(=O)c1ccccc1`, the AC50 in assay [1] is active: 10.7 µM; in assay [2], active: 71.8 µM; in assay [3], active: 75.2 µM; in [4] it was active: 90.1 µM. The result in assay [1] was inactive.

Consider `O=C1C2CC=CCC2C(=O)N1SC(Cl)(Cl)C(Cl)Cl` (centres undefined), for which the AC50 is active: 6.42 µM in assay [2], active: 73 µM in assay [4], active: 5.61 µM in assay [20] and active: 4.37 µM in assay [6]. Also, the outcome in assay [5] was inactive.

With `O=[N+]([O-])c1ccc([N+](=O)[O-])cc1`, in [4], the AC50 is active: 37.4 µM.

Turning to `O=C(Cl)Oc1ccccc1`, the compound was classed as inactive in assay [4].

In the case of `CCCCC(CC)CO[P+](=O)OCC(CC)CCCC` (centres undefined), the outcome in assay [4] was inactive.

In the case of `CN(C(=O)Cc1cccc2occc12)[C@H]1CC[C@@]2(CCCO2)C[C@@H]1N1CCCC1`, the compound was classed as inactive in assay [2] and in assay [3]. For the same compound, in assay [4], the AC50 is active: 19.7 µM.

For `Cc1cc([N+](=O)[O-])cc([N+](=O)[O-])c1O`, the AC50 in assay [2] is active: 50 µM; in assay [3], active: 36.3 µM; in assay [6], active: 55.3 µM. Also, in [5], the compound was called inactive.

In the case of `CCCCO[P+](=O)OCCCC`, the compound was called inactive in assay [4].

For the compound `O=C(Cl)OCCOC(=O)Cl`, in [4], the call was inactive.

On to `CCCCOP(OCCCC)OCCCC`, for which, in [4], the call was inactive.

Regarding `CC(C)CCCCCCCOP(OCCCCCCCC(C)C)Oc1ccccc1`, the call in assay [1], in assay [2] and in assay [3] was inactive.

As usually defined, the AC50 is the concentration giving half of the maximal activity seen.
